Tests used:
human IL-23R = target: T1, human IL-23R (Homo sapiens, UniProt Q5VWK5); experiment: biochemical
T1 sequence (Q5VWK5 22-629): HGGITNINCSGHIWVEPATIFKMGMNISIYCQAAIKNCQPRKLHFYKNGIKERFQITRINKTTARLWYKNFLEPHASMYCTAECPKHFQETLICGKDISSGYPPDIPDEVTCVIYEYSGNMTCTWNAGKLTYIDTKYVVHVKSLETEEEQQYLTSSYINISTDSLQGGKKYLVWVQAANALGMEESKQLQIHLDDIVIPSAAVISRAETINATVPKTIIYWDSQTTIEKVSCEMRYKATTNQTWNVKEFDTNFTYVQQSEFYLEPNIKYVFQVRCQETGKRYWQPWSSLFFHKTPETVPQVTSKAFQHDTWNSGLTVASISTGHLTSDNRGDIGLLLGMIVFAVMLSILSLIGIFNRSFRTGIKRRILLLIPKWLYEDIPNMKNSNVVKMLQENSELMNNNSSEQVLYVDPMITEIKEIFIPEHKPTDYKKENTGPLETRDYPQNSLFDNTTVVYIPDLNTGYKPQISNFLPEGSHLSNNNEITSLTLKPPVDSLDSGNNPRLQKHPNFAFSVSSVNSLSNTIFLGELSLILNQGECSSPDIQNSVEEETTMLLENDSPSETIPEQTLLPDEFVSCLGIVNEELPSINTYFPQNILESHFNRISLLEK

[1] = target: IL-23 mediated signalling (Homo sapiens, UniProt Q5VWK5); experiment: Functional inhibition of IL-23 mediated STAT3 signalling (phospho-STAT3 MSD) in DB cells; assay type: cell-based; conditions: Table 3-2, hIL-23 at EC80, read-out: hIL-23 (pSTAT3) antagonist IC50

SMILES | IC50 (human IL-23R) [nM] | IC50 [1] [nM]
CNC(=O)[C@H](Cc1cccnc1)NC(=O)[C@H](CCN)NC(=O)[C@@H]1CCCNC(=O)CC[C@@H]2NC(=O)CC[C@H](NC(=O)[C@H](CCC(N)=O)NC(=O)[C@H](Cc3c[nH]c4ccccc34)NC(=O)[C@H]([C@@H](C)O)NC2=O)C(=O)N[C@@H](Cc2ccc(OCCN)cc2)C(=O)N[C@@H](Cc2ccc3ccccc3c2)C(=O)N[C@@](C)(CC(C)C)C(=O)N1 [Compound 40, E(1c)(6c)^†TWQE(6c)[Y(2-aminoethoxy)][2-Nal][2-Me-Leu][Orn](1c)[Dab][3-(3-Pyridyl)-Ala]-[NHMe]] | 1.3 | 
CC(C)C[C@]1(C)NC(=O)[C@H](Cc2ccc3ccccc3c2)NC(=O)[C@H](Cc2ccc(OCCN)cc2)NC(=O)[C@@H]2CCC(=O)N[C@@H](CCCNC(=O)CC[C@@H](C(=O)N[C@@H](CCN)C(=O)N[C@@H](Cc3cccnc3)C(N)=O)NC1=O)CC(=O)N[C@@H]([C@@H](C)O)C(=O)N[C@@H](C(C)C)C(=O)N[C@@H](Cc1c[nH]c3ccccc13)C(=O)N[C@@H](CCC(N)=O)C(=O)N2 [Compound 12, [bLys](1c)(6c)^†TVWQE(6c)[Y(2-aminoethoxy)][2-Nal][2-Me-Leu]E(1c)[Dab][3-(3-Pyridyl)-Ala]-[NH2]] |  | 1.3
